Drawing on ChEMBL document CHEMBL1148572, this text covers EC50 for 1 compound.

Sequences of proteins named here, by UniProt entry; tags and fusion partners are left off.
UniProt P30994, whole entry: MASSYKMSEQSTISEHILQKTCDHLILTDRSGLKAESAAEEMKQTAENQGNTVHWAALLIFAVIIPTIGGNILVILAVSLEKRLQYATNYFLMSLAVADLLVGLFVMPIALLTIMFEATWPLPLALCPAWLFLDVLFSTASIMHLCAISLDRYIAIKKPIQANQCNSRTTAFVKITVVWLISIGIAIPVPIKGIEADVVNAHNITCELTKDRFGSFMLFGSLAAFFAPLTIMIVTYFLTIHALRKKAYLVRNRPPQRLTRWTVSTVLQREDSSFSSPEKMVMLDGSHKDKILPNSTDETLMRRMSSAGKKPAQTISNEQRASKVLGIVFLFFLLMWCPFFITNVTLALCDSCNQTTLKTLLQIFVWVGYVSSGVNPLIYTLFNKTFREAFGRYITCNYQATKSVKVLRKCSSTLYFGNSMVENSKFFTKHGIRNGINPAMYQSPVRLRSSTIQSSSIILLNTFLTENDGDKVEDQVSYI

SMILES strings stand for the structures.

The target in assay [1] is T1, 5-hydroxytryptamine receptor 2C (Rattus norvegicus, UniProt P08909).
T1 sequence (P08909 whole entry): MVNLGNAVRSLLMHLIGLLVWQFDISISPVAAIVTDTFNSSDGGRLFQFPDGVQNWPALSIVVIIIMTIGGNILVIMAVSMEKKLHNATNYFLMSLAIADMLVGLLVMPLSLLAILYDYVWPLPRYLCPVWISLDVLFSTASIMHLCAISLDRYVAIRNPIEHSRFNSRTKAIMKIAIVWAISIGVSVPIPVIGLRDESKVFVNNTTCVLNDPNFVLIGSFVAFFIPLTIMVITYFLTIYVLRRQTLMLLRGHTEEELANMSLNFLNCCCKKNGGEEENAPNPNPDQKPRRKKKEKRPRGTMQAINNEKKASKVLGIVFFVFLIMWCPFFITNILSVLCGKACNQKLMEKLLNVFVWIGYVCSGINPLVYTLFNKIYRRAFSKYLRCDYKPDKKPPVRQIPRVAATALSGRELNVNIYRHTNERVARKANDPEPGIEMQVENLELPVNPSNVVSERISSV

The target in assay [2] is 5-hydroxytryptamine receptor 2B (Rattus norvegicus, UniProt P30994).

By EC50 is commonly meant the concentration giving half of the maximal effect. With `COc1ccc2[nH]cc(CCN(C)C)c2c1` [MEBUFOTENIN], the EC50 in assay [1] was found to be 77.8 nM; in assay [2], 240 nM.
